Experimental data reported in patent US20240034765A1, “SCG2 NEUROPEPTIDES AND USES THEREOF” (PRESIDENT AND FELLOWS OF HARVARD COLLEGE, priority 2020, published 2024).

Assays:
PV-IN to CA1 PC = test: IN-to-CA1 PC paired recordings of unitary IPSC (uIPSC), PV-IN, after kainic acid; conditions: slices prepared 24 h after exposure to kainic acid, compared with vehicle
CCK-IN to CA1 PC = test: IN-to-CA1 PC paired recordings of unitary IPSC (uIPSC), CCK-IN, after kainic acid; conditions: slices prepared 24 h after exposure to kainic acid, compared with vehicle

## C=C(C)[C@H]1CN[C@H](C(=O)O)[C@H]1CC(=O)O [kainic acid]
PV-IN to CA1 PC
  amplitudes of PV-uIPSC in CA1 PCs, fold larger: 3.2 fold
CCK-IN to CA1 PC
  amplitudes of CCK-uIPSC in CA1 PCs, fold smaller: 2.2 fold
